Key:
CB2 receptor = target: T1, CB2 receptor (Homo sapiens, UniProt P34972); assay: cAMP assay (HitHunter) in CHO-K1-CB2 cells, agonist and antagonist modes; format: cell-based; settings: agonist or antagonist mode; antagonist mode against CP-55940 at EC90
T1 construct: host or cells: CHO-K1-CB2

Amino acid sequences for entries named in this document (tags omitted).
UniProt P34972, whole entry: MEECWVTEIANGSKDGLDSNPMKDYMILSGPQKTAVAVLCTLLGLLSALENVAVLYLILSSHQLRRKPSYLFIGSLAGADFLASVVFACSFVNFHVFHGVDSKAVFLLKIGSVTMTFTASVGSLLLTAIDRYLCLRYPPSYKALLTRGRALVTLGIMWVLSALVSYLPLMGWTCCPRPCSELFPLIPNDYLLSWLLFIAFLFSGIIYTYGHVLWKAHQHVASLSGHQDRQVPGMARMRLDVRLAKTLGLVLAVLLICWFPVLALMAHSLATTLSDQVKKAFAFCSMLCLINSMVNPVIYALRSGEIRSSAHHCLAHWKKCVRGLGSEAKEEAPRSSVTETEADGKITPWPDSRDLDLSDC

CB2 receptors = settings: range over various ligand binding studies; read-out: binding constant (Ki) for CB2 receptors; cited from earlier work

C=C(C)[C@@H]1CCC(C)=C[C@H]1c1c(O)cc(CCCCC)cc1O [CBD, cannabidiol]
EC50 (CB2 receptor): 7 ± 2 µM
Ki (CB2 receptors): 2.4 to 10 µM

Source: PMC6757234, “Extractions of Medical Cannabis Cultivars and the Role of Decarboxylation in Optimal Receptor Responses” (Cannabis and Cannabinoid Research, 2019)
